In the experiment the test system is Saccharomyces cerevisiae RAK3599 strain. Briefly: SynAA culture medium: elimination of single components and inorganic ion concentration. Type of experiment: cell-based. On the procedure:
In a case where no special provisions are made, a procedure for a cultivation experiment using the culture medium to be investigated for proliferation was such that a yeast undergoing investigation was pre-cultured in a YPD liquid culture medium at 28° C. for 24 hours, after which the yeast was adjusted such that OD600=20. […] In addition, OD600 was measured every 15 minutes by a spectrophotometer (Cell density meter co8000, WPA). Hereafter, data is represented by graphs for a case using the automatic spectrophotometer; however, these graphs are primarily used to compare the slope of logarithmic growth phase proliferation curves for each culture medium, and because OD600 is measured without dilution, values where OD600=3 to 3.5 or more may be incorrect.
Culture mediums were prepared in which one component each of the components configuring the inorganic ion mix was eliminated from the SynAA culture medium, and OD600 was measured. […] Thereafter, an investigation specifically of inorganic ion concentration was conducted. […] An investigation was conducted using RAK3599 strain (hereafter, simply referred to as “RAK3599 strain”), which is a strain of Saccharomyces cerevisiae not having a particular nutritional requirement. […]

On to `O=C(O)CCCC[C@@H]1SC[C@@H]2NC(=O)N[C@@H]21` [biotin], for which the “essentiality for increasing proliferation” value was “essential components”.

Source of the values: patent publication US10023836B2, “Medium for yeasts” (YAMAGUCHI UNIVERSITY, priority 2012, dated 2018).
